Results published in patent publication US11744873B2, “Compositions and methods for the treatment of metabolic and liver disorders” (Viking Therapeutics, Inc., priority 2021, dated 2023).

How the values were obtained:
[1] = Pharmacokinetics in monkeys, SC dosing; conditions: male cynomolgus monkeys, SC single dose 0.2 mg/kg, 0.1% bovine serum albumin in phosphate buffered saline; mean
[2] = Pharmacokinetics studies of formulations, SC dosing; conditions: SC 0.2 mg/kg, mean
[3] = Solubility in 50 mM phosphate buffer; conditions: 50 mM phosphate buffer pH 6.83, ambient conditions

tirzepatide [reference compound]
Half Life [1]: 63.2 h
Half Life ([2]; Formulation 1 (0.1% bovine serum albumin in phosphate buffered saline)): 66.2 h
Half Life ([2]; Formulation 2 (40% propylene glycol and 60% 10 mM pH 6 citrate buffer)): 59.8 h
QNT (quantitative solubility) [3]: >2000 µg/mL
